# Rows were chosen to be rich in hits. Some 1.5% of all compounds tested hit in one or more screens of this group.
# Yeast UUG start: modulators of start codon recognition fidelity in yeast; AID 602363; activity score, % at 18.7 µM; S. cerevisiae UUG-firefly luciferase reporter, luminescence/redox ratio; actives 0.13% (n = 350,000);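 active = replicate mean at a twofold rise or more, about +100% in these data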;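 note: firefly luciferase made from a UUG start codon reports start codon fidelity; reporter light over untreated wells divided by growth signal over untreated wells; some hits fall short of that in this replicate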
# Cneo AK release: Cryptococcus neoformans cell lysis inducers, primary screen, AK release luminescence, single concentration | lysis activity, % at 15 µM | C. neoformans lysis, adenylate kinase release luminescence, 4 h; normalised: neutral wells 0, clomiphene wells 100 | 0.2% of 360,000 active;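 active = mean lysis activity across replicates of at least 80%, whatever share of replicates individually reach that level; inactive = mean lysis activity below 80%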
#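 read-out = cell lysis signal | test system = log-phase Cryptococcus neoformans yeast cells | input = cells at 5 × 10^6 per mL | medium = fresh YPD growth medium | signal = luminescent adenylate kinase detection reagent | timing = 4 h at 37 °C static, read 1 h later | dosing = single dose | controls = Clomiphene as positive lysis control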
# Env fusion inh: inhibitors of HIV-1 Env-driven cell-cell fusion, primary screen, HeLa-JRFL effector, CEM21 target cells, luciferase; inhibition, % at 12.3 µM; 1.1% of 360,000 active; AID 651610, 2012;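 active = mean replicate inhibition score of at least 50 and every replicate individually at or above 50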;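 also: 0% = plate neutral controls and 100% = maraviroc near 300 nM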
# FN deposition inh: inhibitors of fibronectin matrix deposition, primary screen, AH1F cells, Alexa488-fibronectin fluorescence, plate reader; AH1F fibroblasts, overnight; inhibition, % at 12.6 µM; 0.086% of 350,000 active; AID 743247, 2014;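 active = mean inhibition across replicates of 30% or more, regardless of how many single replicates reach that level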;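 also: positive control wells lacked labelled fibronectin entirely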
#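 Material: AH1F fibroblasts assembling fluorescent fibronectin matrix; amount: 10000 AH1F cells/well; medium: DMEM, 2% serum; reagent: Alexa488-fibronectin, 24 nM final in well; dosing: single compound dose, delivered by pin transfer; incubation: 1 h adhesion, overnight exposure; detection: fluorescence after three HBSS washes, excitation 485 nm, emission 525 nm; measure: fibronectin deposition inhibition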
# miR-122 sensor: miR-122 Renilla sensor signal increase in Huh7, primary screen, miR-122 inhibitor project, cell-based, single point, plate reader | Huh7 miR-122 Renilla luciferase sensor, 48 h; neutral wells = 0, positive control = 100 | activation (reporter increase), % at 12.5 µM | 0.3% of 340,000 active | AID 602342, 2012;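 active = mean replicate activation score at least 90 and every replicate individually at or above 90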;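 also: higher luciferase means less miR-122 activity so hits act as miR-122 inhibitors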
# PGC1a acetyl inh: inhibitors of PGC1a acetylation signal, primary screen, cell-based, U2OS, AlphaScreen, inhibitor mode; inhibition, % at 15.6 µM; AID 651687, 2012; 0.17% of 350,000 active; AlphaScreen anti-acetyl-lysine; with virally co-expressed GCN5 acetyltransferase;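 active = every replicate shows inhibition of at least 40%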;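 also: 0% = neutral control wells and 100% = positive control wells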
# An asterisk follows results filed as active; . = no result; [ ] = another dose, or the depositor's remark.
# Letters: A = Yeast UUG start; B = Cneo AK release; C = Env fusion inh; D = FN deposition inh; E = miR-122 sensor; F = PGC1a acetyl inh
1	COc1cc(-c2ccc3sc(-c4ccsc4)c(C#CCO)c3c2)cc(OC)c1OC
  A = -14; B = 1; C = 39; D = -5; E = 4; F = -14
2	NC(=O)C1CCN(C(=O)c2cc3ccccc3cc2O)CC1
  A = -9; B = 0; C = 63*; D = -6; E = .; F = .
3	Cc1onc(-c2ccccc2Cl)c1C(=O)N(Cc1nc(-c2ccccc2)no1)C1CCCCC1
  A = -11; B = -1; C = 88*; D = 0; E = 10; F = -28
4	C[C@H](O)C#Cc1ccc([C@H]2[C@H](CO)N3CCCCN(CC4CCOCC4)C[C@@H]23)cc1
  A = 34; B = 98*; C = .; D = .; E = -3[16.7 µM]; F = 4
5	C[C@@H](O)C#Cc1ccc([C@@H]2[C@H]3CN(CC4CC4)CCCCN3[C@H]2CO)cc1
  A = 24; B = 115*; C = .; D = -14; E = 12[16.7 µM]; F = 7
6	CC1(Cc2ccccc2OC(F)(F)F)C(=O)Nc2ccc(S(=O)(=O)NC3CCCCC3)cc21 (stereo not given)
  A = 10; B = -1; C = 55; D = -3; E = 84; F = -25
7	COc1ccc(OC(F)(F)F)cc1CC1(C)C(=O)Nc2ccc(S(=O)(=O)NC3CCCCC3)cc21 (stereo not given)
  A = -12; B = -1; C = 88*; D = -9; E = 52; F = -38
8	COc1ccccc1CC1(C)C(=O)Nc2ccc(S(=O)(=O)NC3CCCCC3)cc21 (stereo not given)
  A = 0; B = -2; C = 56*; D = 5; E = 41; F = .
9	COc1ccc(Cl)cc1CC1(C)C(=O)Nc2ccc(S(=O)(=O)NC3CCCCC3)cc21 (stereo not given)
  A = -7; B = 1; C = 93*; D = 5; E = 81; F = -30
10	COc1ccc(OC(F)(F)F)cc1CC1(C)C(=O)Nc2ccc(-c3ccsc3)cc21 (stereo not given)
  A = 8; B = 0; C = 58*; D = -2; E = -5; F = -12
11	CCNC(=O)[C@H]1[C@H](CO)[C@H]2Cn3c(ccc(-c4cccc(F)c4)c3=O)[C@@H]1N2C(=O)c1ccccn1
  A = 9; B = -1; C = .; D = .; E = 1[16.7 µM]; F = .
12	COCC(=O)N(C)C[C@@H]1Oc2cc(-c3ccc(OC)cc3)ccc2S(=O)(=O)N([C@H](C)CO)C[C@@H]1C
  A = -2; B = 2; C = 3[16.7 µM]; D = .; E = -3[16.7 µM]; F = -3
13	CC(C)c1ccc(NC(=O)CSC(C)c2nc3ccccc3c(=O)[nH]2)cc1 (stereo not given)
  A = -25; B = -2; C = 39; D = -1; E = -12; F = -3
14	COc1ccc(OC(F)(F)F)cc1CC1(C)C(=O)Nc2cccc(Cl)c21 (stereo not given)
  A = -11; B = -4; C = 83*; D = -7; E = 2; F = -24
15	COc1ccc(NS(=O)(=O)c2ccc(N3CCOCC3)c(NC(=O)c3cccc(F)c3)c2)cc1
  A = .; B = .; C = -5; D = 3; E = 190*; F = .
16	COc1ccc(NS(=O)(=O)c2ccc(N3CCOCC3)c(NC(=O)c3ccc(F)cc3)c2)cc1
  A = 1; B = 2; C = -6; D = 3; E = 179*; F = .
17	C[C@H]1CN([C@@H](C)CO)C(=O)c2cccc(NC(=O)C3CC3)c2O[C@H]1CN(C)CC1CCCCC1
  A = -8; B = -1; C = 4[16.7 µM]; D = 0; E = 19[16.7 µM]; F = 6
18	CCOC(=O)C(=Cc1ccc(OCc2ccc([N+](=O)[O-])cc2)c(OC)c1)C(=O)OCC
  A = .; B = .; C = .; D = .; E = 57; F = 57*
19	Cc1ccccc1NS(=O)(=O)c1ccc(C(=O)NN2CCCCC2)cc1
  A = -13; B = 2; C = 16; D = 13; E = .; F = .
20	Cn1c(-c2ccccc2)c(C=O)c2ccccc21
  A = .; B = .; C = -24; D = 1; E = .; F = .

# Quoted at random: 2 records from the list
# Letters: A = Yeast UUG start; B = Cneo AK release; C = Env fusion inh; D = FN deposition inh; E = miR-122 sensor; F = PGC1a acetyl inh
13	CC(C)c1ccc(NC(=O)CSC(C)c2nc3ccccc3c(=O)[nH]2)cc1 (stereo not given)
  A = -25; B = -2; C = 39; D = -1; E = -12; F = -3
16	COc1ccc(NS(=O)(=O)c2ccc(N3CCOCC3)c(NC(=O)c3ccc(F)cc3)c2)cc1
  A = 1; B = 2; C = -6; D = 3; E = 179*; F = .

# Further structures follow:
# Letters: A = Yeast UUG start; B = Cneo AK release; C = Env fusion inh; D = FN deposition inh; E = miR-122 sensor; F = PGC1a acetyl inh
21	O=[N+]([O-])c1ccc(C2CCCC/C2=N/OCc2ccccc2F)c([N+](=O)[O-])c1 (stereo not given)
  A = -5; B = 2; C = .; D = .; E = 7; F = -17
22	O=[N+]([O-])c1ccc(C2CCCC/C2=N/OCc2ccc(F)cc2)c([N+](=O)[O-])c1 (stereo not given)
  A = -6; B = 0; C = 65*; D = .; E = -1; F = -9
23	C[C@H]1CCCCO[C@@H](CN(C)Cc2ccncc2)[C@@H](C)CN([C@@H](C)CO)C(=O)c2cc(NC(=O)Nc3cccc4ccccc34)ccc2O1
  A = 12; B = 1; C = 70*[16.7 µM]; D = .; E = -7[16.7 µM]; F = 30
24	C[C@H](CO)N1C[C@H](C)[C@H](CN(C)Cc2ccccc2)OCCCC[C@H](C)Oc2ccc(NC(=O)Nc3cccc4ccccc34)cc2C1=O
  A = 8; B = 0; C = 114*[16.7 µM]; D = 4; E = 4[16.7 µM]; F = 0
25	C[C@@H]1CCCCO[C@H](CN(C)Cc2ccncc2)[C@H](C)CN([C@@H](C)CO)C(=O)c2cc(NC(=O)Nc3cccc4ccccc34)ccc2O1
  A = 3; B = -2; C = -57[16.7 µM]; D = .; E = 5[16.7 µM]; F = 6
26	C[C@@H]1CCCCO[C@H](CN(C)Cc2ccc3c(c2)OCO3)[C@H](C)CN([C@H](C)CO)C(=O)c2cc(NC(=O)Nc3cccc4ccccc34)ccc2O1
  A = 33; B = 88*; C = 3[16.7 µM]; D = .; E = 0[16.7 µM]; F = -5
27	C[C@@H]1CCCCO[C@@H](CN(C)Cc2ccccc2)[C@H](C)CN([C@@H](C)CO)C(=O)c2cc(NC(=O)Nc3cccc4ccccc34)ccc2O1
  A = 4; B = 1; C = 33[16.7 µM]; D = 7; E = 6[16.7 µM]; F = 7
28	CCOc1ccc(NC(=O)CN(C)C(=O)c2cccnc2SC)cc1OCC
  A = -4; B = -1; C = .; D = -6; E = 33; F = .
29	CCCC#Cc1ccc([C@H]2[C@H](CO)N3C(=O)CN(C(=O)Nc4cc(F)ccc4F)C[C@@H]23)cc1
  A = .; B = .; C = .; D = .; E = .; F = 17
30	Fc1ccc(-n2nnc(-c3cccnc3Cl)n2)cc1
  A = -23; B = -6; C = -158; D = 6; E = -1; F = 0

# Entries of single compounds from above:
# Results for `COc1ccc(OC(F)(F)F)cc1CC1(C)C(=O)Nc2cccc(Cl)c21` (stereo not given) : Yeast UUG start: -11; Cneo AK release: -4; Env fusion inh: 83*; FN deposition inh: -7; miR-122 sensor: 2; PGC1a acetyl inh: -24
# Results for `C[C@H]1CCCCO[C@@H](CN(C)Cc2ccncc2)[C@@H](C)CN([C@@H](C)CO)C(=O)c2cc(NC(=O)Nc3cccc4ccccc34)ccc2O1` : Yeast UUG start: 12; Cneo AK release: 1; Env fusion inh: 70*[16.7 µM]; FN deposition inh: .; miR-122 sensor: -7[16.7 µM]; PGC1a acetyl inh: 30

# Continued:
# Letters: A = Yeast UUG start; B = Cneo AK release; C = Env fusion inh; D = FN deposition inh; E = miR-122 sensor; F = PGC1a acetyl inh
31	Fc1ccc(-n2nnc(-c3nccs3)n2)cc1
  A = -25; B = -4; C = -139; D = 13; E = 136*; F = .
32	O=C(Nc1ccccc1[N+](=O)[O-])C1=C(O)CCn2c1nc1ccccc12
  A = -6; B = 4; C = .; D = .; E = -9; F = 13
33	O=C(O)C[C@@H]1CC[C@@H]2[C@H](COC[C@H](O)CN2S(=O)(=O)c2ccc(F)cc2)O1
  A = .; B = 83*; C = .; D = 11; E = 0[16.7 µM]; F = 0
34	O=C(C[C@@H]1CC[C@@H]2[C@H](COC[C@H](O)CN2S(=O)(=O)c2ccc(Oc3ccccc3)cc2)O1)NC1CCC1
  A = .; B = 95*; C = .; D = -12; E = 9[16.7 µM]; F = -2
35	O=C(C[C@H]1CC[C@H]2[C@@H](COC[C@H](O)CN2Cc2cc(F)cc(F)c2)O1)Nc1nccs1
  A = .; B = 96*; C = -19[16.7 µM]; D = 7; E = 32[16.7 µM]; F = -24
36	O=C(C[C@@H]1CC[C@@H]2[C@H](COC[C@@H](O)CN2Cc2cc(F)cc(F)c2)O1)Nc1nccs1
  A = .; B = 1; C = -2[16.7 µM]; D = -2; E = -4[16.7 µM]; F = -11
37	O=C(C[C@@H]1CC[C@H]2[C@@H](COC[C@H](O)CN2Cc2ccccc2F)O1)NC1CCC1
  A = .; B = 97*; C = 1[16.7 µM]; D = -3; E = 7[16.7 µM]; F = 10
38	COC(=O)C[C@H]1CC[C@H]2[C@@H](COC[C@H](O)CN2S(=O)(=O)c2ccc(F)cc2)O1
  A = 5; B = 50; C = -2[16.7 µM]; D = -7; E = 4[16.7 µM]; F = -4

# Source: PubChem BioAssay (Broad Institute)
